Results reported in patent publication US20080027139A1, “Use of Alpha-Ketoglutarate and Related Compounds” (priority 2004, published 2008).
Read-outs that look alike come from different tables or passages of the source. Marks after values point to notes of the source that are not given here.

Tests used:
[1] = tested on: Wistar rats with diet-induced hypercholesterolaemia; settings: day 120; for HDL level in the blood serum / LDL level in the blood serum / Total cholesterol level in the blood serum / Triglycerides level in the blood serum: cholesterol/lard diet, mean ± S.E.M
[2] = tested on: sham-operated (SHO) and ovariectomized (OVX) Wistar female rats
Procedure: A study was conducted on Wistar female rats kept in standard weather conditions. […] Afterwards the female rates were randomly divided into 2 groups: ovariectomy were performed in all animals in group one (OVX) and placebo operation were done in the second group (SHO). Surgical procedures were performed under general anesthesia (rometare, ketamine and atropine in doses 2, 10 and 0.05 mg/kg of bodily weight respectively.
Studies were conducted on the animals from the two groups: females received experimental solutions from the seventh day following the operation (simulation of the first period of the lack of activity of the ovarian hormones) (Experiment I 1), females aged 7 months with a 5 month period in which there was no activity of hormonal ovaries (simulation of the period with a prolonged absence of the activity of ovarian hormones) (Experiment I 2) (Tab. 2).
In each of Experiments I1 and I2 40 animals was used for each experimental doses making a total of 240 animals.
Blood samples were collected immediately after slaughter, and the plasma removed by centrifugation was stored in a safe place for further biochemical analyses.
The entire cholesterol concentration was determined by means of commonly available analytical equipment using the spectrophotometric method.

[3] = tested on: volunteers with a relatively high level of cholesterol
Source text: The experiment lasted for the total of 42 days. […] During the experiment no quantitative or qualitative restrictions regarding the diet were introduced. In the period from day 1 to day 28 the patients' lipid profile was checked every seven days in order to determine the concentration of cholesterol, fractions of LDL and HDL and triglycerides. […] Subsequent measurements of the lipid profile were taken on 42nd day of the experiment.

[4] = AKG doses 0.1 and 1 from day 61 for 60 days, females and males, p<0.05
[5] = female rats, AKG dose 0.1 from day 61 for 60 days
[6] = female rats, AKG dose 1.0 from day 61 for 60 days
[7] = male rats, AKG dose 0.1 from day 61 for 60 days
[8] = male rats, AKG dose 1.0 from day 61 for 60 days

O=C(O)CCC(=O)C(=O)O [AKG, alpha-ketoglutaric acid]
effect on LDL fraction in blood plasma (in words) [1, 4]: statistically significant decrease
effect on entire cholesterol in blood plasma (in words) [1, 4]: statistically significant decrease
effect on triglycerides in blood plasma (in words) [1, 4]: statistically significant decrease
HDL level in the blood serum [1, 5]: 39.4 ± 0.68^ mg/dl
LDL level in the blood serum [1, 5]: 0.20 ± 0.015^b mg/dl
Total cholesterol level in the blood serum [1, 5]: 77.2 ± 3.14^b mg/dl
Triglycerides level in the blood serum [1, 5]: 111.7 ± 1.85^b mg/dl
HDL level in the blood serum [1, 6]: 40.2 ± 1.59^ mg/dl
LDL level in the blood serum [1, 6]: 0.20 ± 0.019^b mg/dl
Total cholesterol level in the blood serum [1, 6]: 69.2 ± 2.5^b mg/dl
Triglycerides level in the blood serum [1, 6]: 142.0 ± 2.39^c mg/dl
HDL level in the blood serum [1, 7]: 39.0 ± 1.67^b mg/dl
LDL level in the blood serum [1, 7]: 5.4 ± 2.48^b mg/dl
Total cholesterol level in the blood serum [1, 7]: 65.0 ± 2.28^b mg/dl
Triglycerides level in the blood serum [1, 7]: 102.2 ± 10.89^b mg/dl
HDL level in the blood serum [1, 8]: 35.6 ± 2.32^b mg/dl
LDL level in the blood serum [1, 8]: 10.2 ± 2.31^b mg/dl
Total cholesterol level in the blood serum [1, 8]: 69.6 ± 2.73^b mg/dl
Triglycerides level in the blood serum [1, 8]: 119.6 ± 17.35^b mg/dl
cholesterol concentration in blood serum ([2]; OVX female rats, AKG dose 0.01, 150 days after surgery + 60 days of AKG treatment, mean ± S.E.M, p<0.05 vs OVX + placebo): 1.68 ± 0.09^B mmol/l
cholesterol concentration in blood serum ([2]; OVX female rats, AKG dose 0.01 per os, 7 days after surgery + 60 days of AKG treatment, mean ± S.E.M, p<0.05 vs OVX + placebo): 1.46 ± 0.08^b mmol/l
cholesterol concentration in blood serum ([2]; OVX female rats, AKG dose 0.1, 150 days after surgery + 60 days of AKG treatment, mean ± S.E.M, p<0.01 vs OVX + placebo): 1.59 ± 0.06^B mmol/l
cholesterol concentration in blood serum ([2]; OVX female rats, AKG dose 1.0, 7 days after surgery + 60 days of AKG treatment): 1.44 ± 0.11 mmol/L
cholesterol concentration in blood serum ([2]; OVX female rats, AKG dose 1.0, 90 days after surgery + 60 days of AKG treatment, p<0.001 vs placebo): 0.49 ± 0.09^B* mmol/l
cholesterol concentration in blood serum ([2]; OVX female rats, title: dose 0.1 of AKG, column head: (dose 0.01), 7 days after surgery + 60 days of AKG treatment): 1.47 ± 0.08 mmol/L
cholesterol concentration in blood serum ([2]; SHO female rats, AKG dose 0.01 (basic solution 146 g AKG/10 l thinned one hundredfold) per os, 7 days after surgery + 60 days of AKG treatment, mean ± S.E.M): 1.50 ± 0.19 mmol/L
cholesterol concentration in blood serum ([2]; SHO female rats, AKG dose 0.01, 150 days after surgery + 60 days of AKG treatment, mean ± S.E.M): 1.59 ± 0.06^a mmol/l
cholesterol concentration in blood serum ([2]; SHO female rats, AKG dose 0.1 (basic solution thinned tenfold), 150 days after surgery + 60 days of AKG treatment, mean ± S.E.M): 1.60 ± 0.08^a mmol/l
cholesterol concentration in blood serum ([2]; SHO female rats, AKG dose 1.0 (basic solution 146 g AKG/10 l), 7 days after surgery + 60 days of AKG treatment): 1.28 ± 0.11 mmol/L
cholesterol concentration in blood serum ([2]; SHO female rats, AKG dose 1.0, 90 days after surgery + 60 days of AKG treatment, p<0.05 vs placebo): 0.76 ± 0.06^b mmol/l
cholesterol concentration in blood serum ([2]; SHO female rats, title: dose 0.1 of AKG, column head: (dose 0.01), 7 days after surgery + 60 days of AKG treatment): 1.45 ± 0.19 mmol/L
LDL level ([3]; Volunteer 1, 1st week, chewable tablets of 1.28 g calcium alpha-ketoglutarate (1 g AKG), two tablets three times a day, day 1-28): 110 mg/dL
LDL level ([3]; Volunteer 1, 2nd week, calcium alpha-ketoglutarate tablets (1 g AKG), two tablets three times a day): 94 mg/dL
LDL level ([3]; Volunteer 1, 3rd week, calcium alpha-ketoglutarate tablets (1 g AKG), two tablets three times a day): 75 mg/dL
LDL level ([3]; Volunteer 1, 4th week, calcium alpha-ketoglutarate tablets (1 g AKG), two tablets three times a day): 57 mg/dL
LDL level ([3]; Volunteer 1, 6th week, after 2 weeks without AKG): 88 mg/dL
LDL level ([3]; Volunteer 2, 1st week, chewable tablets of 1.28 g calcium alpha-ketoglutarate (1 g AKG), two tablets three times a day, day 1-28): 131 mg/dL
LDL level ([3]; Volunteer 2, 2nd week, calcium alpha-ketoglutarate tablets (1 g AKG), two tablets three times a day): 148 mg/dL
LDL level ([3]; Volunteer 2, 3rd week, calcium alpha-ketoglutarate tablets (1 g AKG), two tablets three times a day): 119 mg/dL
LDL level ([3]; Volunteer 2, 4th week, calcium alpha-ketoglutarate tablets (1 g AKG), two tablets three times a day): 110 mg/dL
LDL level ([3]; Volunteer 2, 6th week, after 2 weeks without AKG): 131 mg/dL
effect on concentration of LDL fraction (in words) ([3]; two volunteers, after 28 days of tablets containing 1 g of AKG, 2 tablets 3 times a day): decrease
change of concentration of LDL fraction after stopping (in words) ([3]; two volunteers, after a 14 day break in administering the preparation): increased
